Laboratory results taken from the NIST ThermoML archive (doi:10.1016/j.fluid.2013.11.031).

Assay: xn = mol fraction of the nth substance listed
Settings: Liquid, Vibrating tube method

CCCCOCCCC [dibutyl ether] + CCCCCCO
mass density [kg/m3]
Settings | x1 = 0.1503 | x1 = 0.3248 | x1 = 0.4999 | x1 = 0.6761 | x1 = 0.8431
293.15 K, 100 kPa | 810.2 | 800.4 | 791.5 | 783.1 | 775.5
293.15 K, 10000 kPa | 816.9 | 807.4 | 798.8 | 790.8 | 783.4
293.15 K, 20000 kPa | 823 | 813.9 | 805.6 | 797.9 | 790.7
293.15 K, 30000 kPa | 828.7 | 819.8 | 811.7 | 804.3 | 797.4
293.15 K, 40000 kPa | 834.2 | 825.5 | 817.6 | 810.4 | 803.7
293.15 K, 50000 kPa | 839.2 | 830.8 | 823 | 816 | 809.5
293.15 K, 60000 kPa | 843.9 | 835.7 | 828.1 | 821.2 | 814.9
293.15 K, 70000 kPa | 848.5 | 840.5 | 833.1 | 826.3 | 820
293.15 K, 80000 kPa | 852.9 | 845 | 837.8 | 830.8 | 824.9
293.15 K, 90000 kPa | 857 | 849.2 | 842.1 | 835.3 | 829.5
293.15 K, 100000 kPa | 861.3 | 853.7 | 846.6 | 839.9 | 834.2
293.15 K, 110000 kPa | 865 | 857.5 | 850.6 | 844 | 838.4
293.15 K, 120000 kPa | 868.8 | 861.3 | 854.5 | 848 | 842.5
293.15 K, 130000 kPa | 872.4 | 865 | 858.3 | 851.9 | 846.4
293.15 K, 140000 kPa | 875.9 | 868.6 | 862 | 855.7 | 850.3
313.15 K, 100 kPa | 795.1 | 785.1 | 775.3 | 766.3 | 758.4
313.15 K, 10000 kPa | 802.3 | 792.7 | 783.3 | 774.7 | 767.3
313.15 K, 20000 kPa | 809 | 799.7 | 790.7 | 782.5 | 775.3
313.15 K, 30000 kPa | 815.3 | 806.4 | 797.7 | 789.7 | 782.8
313.15 K, 40000 kPa | 821 | 812.4 | 804 | 796.2 | 789.5
313.15 K, 50000 kPa | 826.6 | 818.1 | 810 | 802.4 | 795.9
313.15 K, 60000 kPa | 831.8 | 823.5 | 815.6 | 808.2 | 801.8
313.15 K, 70000 kPa | 836.8 | 828.8 | 821 | 813.7 | 807.5
313.15 K, 80000 kPa | 841.4 | 833.6 | 825.9 | 818.8 | 812.7
313.15 K, 90000 kPa | 845.9 | 838.2 | 830.7 | 823.7 | 817.7
313.15 K, 100000 kPa | 850.1 | 842.5 | 835.1 | 828.2 | 822.4
313.15 K, 110000 kPa | 854.2 | 846.8 | 839.5 | 832.8 | 827
313.15 K, 120000 kPa | 858.2 | 850.9 | 843.7 | 837.1 | 831.4
313.15 K, 130000 kPa | 862 | 854.8 | 847.7 | 841.2 | 835.5
313.15 K, 140000 kPa | 865.7 | 858.6 | 851.7 | 845.2 | 839.6
333.15 K, 100 kPa | 780.1 | 769.2 | 759.8 | 753 | 742
333.15 K, 10000 kPa | 788.1 | 777.7 | 768.6 | 762.1 | 751.8
333.15 K, 20000 kPa | 795.6 | 785.6 | 776.7 | 770.4 | 760.7
333.15 K, 30000 kPa | 802.4 | 792.7 | 784.1 | 777.8 | 768.7
333.15 K, 40000 kPa | 808.7 | 799.4 | 790.9 | 784.8 | 776.1
333.15 K, 50000 kPa | 814.6 | 805.5 | 797.3 | 791.2 | 782.9
333.15 K, 60000 kPa | 820.1 | 811.3 | 803.2 | 797.2 | 789.2
333.15 K, 70000 kPa | 825.3 | 816.6 | 808.7 | 802.8 | 795.1
333.15 K, 80000 kPa | 830.3 | 821.9 | 814.1 | 808.2 | 800.8
333.15 K, 90000 kPa | 835.3 | 827 | 819.4 | 813.5 | 806.4
333.15 K, 100000 kPa | 839.8 | 831.6 | 824.1 | 818.1 | 811.3
333.15 K, 110000 kPa | 843.9 | 835.9 | 828.6 | 822.5 | 816
333.15 K, 120000 kPa | 847.6 | 839.7 | 832.5 | 826.4 | 820
333.15 K, 130000 kPa | 851.8 | 844 | 836.9 | 830.8 | 824.7
333.15 K, 140000 kPa | 855.6 | 847.9 | 840.9 | 834.9 | 828.9
353.15 K, 100 kPa | 763.7 | 752.3 | 742.7 | 735.5 | 724.8
353.15 K, 10000 kPa | 772.7 | 761.9 | 752.7 | 745.7 | 735.9
353.15 K, 20000 kPa | 780.9 | 770.6 | 761.7 | 755 | 745.8
353.15 K, 30000 kPa | 788.4 | 778.6 | 769.9 | 763.3 | 754.6
353.15 K, 40000 kPa | 795.3 | 785.8 | 777.3 | 770.9 | 762.5
353.15 K, 50000 kPa | 801.8 | 792.5 | 784.2 | 777.9 | 769.9
353.15 K, 60000 kPa | 807.6 | 798.7 | 790.5 | 784.3 | 776.6
353.15 K, 70000 kPa | 813.2 | 804.5 | 796.5 | 790.3 | 782.8
353.15 K, 80000 kPa | 818.6 | 810.1 | 802.2 | 796.1 | 788.8
353.15 K, 90000 kPa | 823.6 | 815.3 | 807.5 | 801.5 | 794.4
353.15 K, 100000 kPa | 828.3 | 820.1 | 812.6 | 806.5 | 799.6
353.15 K, 110000 kPa | 832.8 | 824.9 | 817.5 | 811.3 | 804.7
353.15 K, 120000 kPa | 837.3 | 829.4 | 822.2 | 816 | 809.5
353.15 K, 130000 kPa | 841.4 | 833.5 | 826.3 | 820.4 | 814.1
353.15 K, 140000 kPa | 845.5 | 837.7 | 830.5 | 824.7 | 818.6
